Test results as given in PubChem BioAssay (NCATS).
The entries are a selection whose mix differs from that of the whole data set. Inconclusive results are not listed. Calls of active or inactive are those of the source. Unless noted, the call rests on the fitted dose curve; in most records, active means well fitted curve in the direction sought with a large enough effect; inconclusive means small, poorly fitted or top-dose-only effect, or another doubt; inactive means no such curve, though single readings can be large; an effect the other way counts as inactive or inconclusive.

Chains of the proteins cited; added tags and fusions are not shown. Lines headed by an entry give the natural chain unless they say otherwise; changes in a name come on top.
UniProt Q99828: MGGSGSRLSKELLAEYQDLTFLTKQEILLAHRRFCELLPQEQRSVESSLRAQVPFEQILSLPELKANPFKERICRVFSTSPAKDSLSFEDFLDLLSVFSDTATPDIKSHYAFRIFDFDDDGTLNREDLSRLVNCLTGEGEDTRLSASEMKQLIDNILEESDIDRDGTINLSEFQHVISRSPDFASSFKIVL
UniProt P10635, whole entry, looked up: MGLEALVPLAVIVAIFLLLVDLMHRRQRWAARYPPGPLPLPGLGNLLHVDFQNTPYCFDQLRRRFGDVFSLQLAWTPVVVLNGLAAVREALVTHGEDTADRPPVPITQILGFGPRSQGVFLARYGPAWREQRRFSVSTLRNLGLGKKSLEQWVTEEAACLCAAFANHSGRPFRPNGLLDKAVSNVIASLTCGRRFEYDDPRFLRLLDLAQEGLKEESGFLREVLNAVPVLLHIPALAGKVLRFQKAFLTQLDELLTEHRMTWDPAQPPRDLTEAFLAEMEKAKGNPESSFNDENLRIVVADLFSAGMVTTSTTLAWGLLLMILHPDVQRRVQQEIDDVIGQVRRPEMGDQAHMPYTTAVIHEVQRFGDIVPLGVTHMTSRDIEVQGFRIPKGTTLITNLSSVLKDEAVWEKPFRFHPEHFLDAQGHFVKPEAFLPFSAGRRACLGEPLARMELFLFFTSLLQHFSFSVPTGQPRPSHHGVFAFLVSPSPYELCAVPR
UniProt P11712, whole entry, looked up: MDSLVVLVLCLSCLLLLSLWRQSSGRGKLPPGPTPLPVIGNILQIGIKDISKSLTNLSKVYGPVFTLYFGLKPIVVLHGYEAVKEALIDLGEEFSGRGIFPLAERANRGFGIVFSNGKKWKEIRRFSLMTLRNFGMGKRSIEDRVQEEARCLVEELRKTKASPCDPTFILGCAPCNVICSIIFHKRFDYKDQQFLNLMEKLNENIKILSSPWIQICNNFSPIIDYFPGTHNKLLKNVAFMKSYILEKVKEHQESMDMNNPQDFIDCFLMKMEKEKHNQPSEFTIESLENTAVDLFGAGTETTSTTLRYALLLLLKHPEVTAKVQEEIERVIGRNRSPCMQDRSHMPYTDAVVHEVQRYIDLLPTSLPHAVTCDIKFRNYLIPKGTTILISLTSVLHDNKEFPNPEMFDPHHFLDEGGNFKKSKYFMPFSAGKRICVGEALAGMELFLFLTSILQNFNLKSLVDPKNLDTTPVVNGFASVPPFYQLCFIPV

How the values were obtained:
[1] = High-throughput drug toxicity screening in the BPDCN cell line Gen2.2 (AID 1224824; call rule not given here;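 further: cells exposed to compounds for 48 h before reading; 100% = DMSO and 0% = bortezomib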); conditions: Gen2.2 BPDCN cells; at 45.8 µM (top of the series)
[2] = High-throughput drug toxicity screening in the BPDCN cell line Cal-1 (AID 1224825; call rule not given here;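 further: cells exposed to compounds for 48 h; 100% = DMSO and 0% = bortezomib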); conditions: Cal-1 BPDCN cell viability, qHTS; at 45.8 µM (top of the series)
[3] = qHTS Screen of the MIPE 4.0 Collection Against Ewings Sarcoma (RDES) (AID 1259252); conditions: RD-ES Ewing sarcoma viability, CellTiter-Glo, 48 h; at 45.8 µM (top of the series);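 further: 100% = DMSO-treated cells and 0% = medium-only wells without cells; nearly all actives have a fitted effect of over 35% in size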
[4] = P-glycoprotein substrates identified in KB-8-5-11 adenocarcinoma cell line, qHTS therapeutic library screen (AID 1346987); conditions: KB-8-5-11 (P-gp overexpressing) viability, CellTiter-Glo, 72 h; at 44.5 µM (top of the series) unless noted; further: on the % scale 0 is the no-effect control and ±100 the full control effect; nearly all actives have a fitted effect of over 65% in size
[5] = qHTS of pediatric cancer cell lines to identify multiple opportunities for drug repurposing: Primary screen for TC32 cells (AID 1347089); conditions: TC32 Ewing sarcoma viability, CellTiter-Glo luminescence, 48 h; at 45.8 µM (top of the series) unless noted; further: on the % scale 0 is the no-effect control and ±100 the full control effect; nearly all actives have a fitted effect of over 60% in size
[6] = qHTS of pediatric cancer cell lines to identify multiple opportunities for drug repurposing: Primary screen for DAOY cells (AID 1347090);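 further: plate controls were DMSO for no effect and bortezomib for full effect; nearly all actives have a fitted effect of over 55% in size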
[7] = qHTS of pediatric cancer cell lines to identify multiple opportunities for drug repurposing: Primary screen for SJ-GBM2 cells (AID 1347091); conditions: SJ-GBM2 viability, CellTiter-Glo luminescence, 48 h; at 46 µM (top of the series) unless noted;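 further: plate controls were DMSO neutral control for no effect and bortezomib for full effect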
[8] = qHTS of pediatric cancer cell lines to identify multiple opportunities for drug repurposing: Primary screen for A673 cells (AID 1347092); conditions: A673 Ewing sarcoma viability, CellTiter-Glo ATP luminescence, 48 h; at 46 µM (top of the series) unless noted; further: on the % scale 0 is the no-effect control and ±100 the full control effect; nearly all actives have a fitted effect of over 45% in size
[9] = qHTS of pediatric cancer cell lines to identify multiple opportunities for drug repurposing: Primary screen for SK-N-MC cells (AID 1347093); conditions: SK-N-MC viability, CellTiter-Glo luminescence, 48 h; at 46 µM (top of the series) unless noted;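 further: plate controls were DMSO neutral control for no effect and bortezomib for full effect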
[10] = qHTS of pediatric cancer cell lines to identify multiple opportunities for drug repurposing: Primary screen for BT-37 cells (AID 1347094); conditions: BT-37 viability, CellTiter-Glo luminescence, 48 h; at 57.3 µM (top of the series) unless noted;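 further: plate controls were DMSO for no effect and bortezomib for full effect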
[11] = qHTS of pediatric cancer cell lines to identify multiple opportunities for drug repurposing: Primary screen for NB-EBc1 cells (AID 1347095); conditions: NB-EBc1 neuroblastoma viability, CellTiter-Glo luminescence, 48 h; at 46 µM (top of the series) unless noted;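 further: plate controls were DMSO neutral control for no effect and bortezomib for full effect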
[12] = qHTS of pediatric cancer cell lines to identify multiple opportunities for drug repurposing: Primary screen for U-2 OS cells (AID 1347096); conditions: U-2 OS viability, CellTiter-Glo luminescence, 48 h; at 46 µM (top of the series) unless noted;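 further: plate controls were DMSO wells for no effect and bortezomib positive control wells for full effect; nearly all actives have a fitted effect of over 50% in size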
[13] = qHTS of pediatric cancer cell lines to identify multiple opportunities for drug repurposing: Primary screen for Saos-2 cells (AID 1347097); conditions: Saos-2 viability, CellTiter-Glo ATP luminescence, 48 h; at 46 µM (top of the series) unless noted; further: on the % scale 0 is the no-effect control and ±100 the full control effect; nearly all actives have a fitted effect of over 40% in size
[14] = qHTS of pediatric cancer cell lines to identify multiple opportunities for drug repurposing: Primary screen for SK-N-SH cells (AID 1347098); conditions: SK-N-SH viability, CellTiter-Glo luminescence, 48 h; at 57 µM (top of the series) unless noted;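 further: DMSO served as neutral control and bortezomib at 2.3 µM as positive control; on the % scale 0 is the no-effect control and ±100 the full control effect; nearly all actives have a fitted effect of over 65% in size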
[15] = qHTS of pediatric cancer cell lines to identify multiple opportunities for drug repurposing: Primary screen for NB1643 cells (AID 1347099); conditions: NB1643 neuroblastoma viability, CellTiter-Glo luminescence, 48 h; at 46 µM (top of the series) unless noted;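 further: plate controls were DMSO neutral control for no effect and bortezomib positive control for full effect; nearly all actives have a fitted effect of over 50% in size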
[16] = qHTS of pediatric cancer cell lines to identify multiple opportunities for drug repurposing: Primary screen for Rh18 cells (AID 1347102); conditions: Rh18 rhabdomyosarcoma viability, CellTiter-Glo luminescence, 48 h; at 46 µM (top of the series) unless noted; further: on the % scale 0 is the no-effect control and ±100 the full control effect; nearly all actives have a fitted effect of over 65% in size
[17] = qHTS of pediatric cancer cell lines to identify multiple opportunities for drug repurposing: Primary screen for OHS-50 cells (AID 1347103); further: potency means the concentration at half of the fitted maximal effect; nearly all actives have a fitted effect of over 40% in size
[18] = qHTS of pediatric cancer cell lines to identify multiple opportunities for drug repurposing: Primary screen for RD cells (AID 1347104); conditions: RD rhabdomyosarcoma viability, CellTiter-Glo luminescence, 48 h; at 46 µM (top of the series) unless noted;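 further: plate controls were DMSO for no effect and bortezomib for full effect; nearly all actives have a fitted effect of over 55% in size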
[19] = qHTS of pediatric cancer cell lines to identify multiple opportunities for drug repurposing: Primary screen for MG 63 (6-TG R) cells (AID 1347105); conditions: MG 63 (6-TG R) viability, CellTiter-Glo, 48 h; at 46 µM (top of the series) unless noted; further: on the % scale 0 is the no-effect control and ±100 the full control effect; nearly all actives have a fitted effect of over 50% in size
[20] = qHTS of pediatric cancer cell lines to identify multiple opportunities for drug repurposing: Primary screen for control Hh wild type fibroblast cells (AID 1347106); conditions: Hh wild-type fibroblast viability, CellTiter-Glo luminescence, 48 h; at 46 µM (top of the series) unless noted;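 further: on the % scale 0 is the no-effect control and ±100 the full control effect; a drop in luminescence marks cytotoxicity and a rise apparent proliferation; nearly all actives have a fitted effect of over 55% in size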
[21] = qHTS of pediatric cancer cell lines to identify multiple opportunities for drug repurposing: Primary screen for Rh30 cells (AID 1347107); conditions: Rh30 rhabdomyosarcoma viability, CellTiter-Glo luminescence, 48 h; at 46 µM (top of the series) unless noted; further: on the % scale 0 is the no-effect control and ±100 the full control effect; nearly all actives have a fitted effect of over 75% in size
[22] = qHTS of pediatric cancer cell lines to identify multiple opportunities for drug repurposing: Primary screen for Rh41 cells (AID 1347108); conditions: Rh41 rhabdomyosarcoma viability, CellTiter-Glo luminescence, 48 h; at 46 µM (top of the series) unless noted;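 further: luminescence drop marks cytotoxic hits; nearly all actives have a fitted effect of over 70% in size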
[23] = molecular target: Calcium and integrin-binding protein 1 (Homo sapiens) (UniProt Q99828); experiment: Primary qHTS for Identification of Calcium Integrin Binding Protein 1 (CIB1) Competitor (AID 1508620); conditions: CIB1-GST / FITC-alphaIIb peptide fluorescence polarization; at 114 µM (top of the series) unless noted;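 further: GST tagged CIB1 binding a fluorescein labelled alphaIIb integrin peptide tracer; top concentration of the series differs between compounds; on the % scale 0 is the no-effect control and ±100 the full control effect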
[24] = Primary qHTS for small molecule stabilizers of the endoplasmic reticulum resident proteome: Secreted ER Calcium Modulated Protein (SERCaMP) assay (AID 1508630); conditions: SH-SY5Y GLuc-SERCaMP secretion, thapsigargin, luminescence; at 38.4 µM (top of the series); further: on the % scale 0 is the no-effect control and ±100 the full control effect
Summary of the method: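 GLuc-SERCaMP-expressing SH-SY5Y cells, pretreated 16 h with compound, are challenged with thapsigargin to empty ER calcium stores; after 4 h, coelenterazine is added directly to the medium and luminescence is imaged.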

[25] = molecular target: Cytochrome P450 2D6 (Homo sapiens) (UniProt P10635); experiment: Cytochrome P450 family 2 subfamily D member 6 (CYP2D6) small molecule antagonists: luciferase biochemical (cell-free) qHTS assay (AID 1645840; active means well fitted curve in the direction sought with a large enough effect in the repeat runs; an effect the other way counts as inactive or inconclusive; further: potency means the concentration at half of the fitted maximal effect; nearly all actives have a fitted effect of over 55% in size)
Summary of the method: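 P450-Glo luminescent screen: recombinant CYP2D6 enzyme–proluciferin substrate mix preincubated with compound 10 min at room temperature, then NADPH regeneration added for 1 h at room temperature. Detection reagent added for 20 min; luciferin light read as relative luminescence units.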

[26] = molecular target: Cytochrome P450 2C9 (Homo sapiens) (UniProt P11712); experiment: Cytochrome P450 family 2 subfamily C member 9 (CYP2C9) small molecule antagonists: luciferase qHTS assay (AID 1645842; active means well fitted curve in the direction sought with a large enough effect in the repeat runs; an effect the other way counts as inactive or inconclusive); conditions: P450-Glo CYP2C9 enzyme assay, luciferin luminescence; at 57.4 µM (top of the series) unless noted
Summary of the method: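 Luminescence, after 20 min with luciferin detection reagent, reflected CYP2C9 turnover during a 1 h NADPH-driven reaction at 37C. Enzyme-substrate mix contained 0.4% bovine serum albumin and was preincubated with compound 10 min at room temperature.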

[27] = Quantitative High-Throughput drug screen in 47 multiple myeloma cell lines against the NCATS MIPE library collection: FR4_PLB cell viability assay (AID 1918924;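 further: 100% = DMSO-treated cells and 0% = wells with media only; nearly all actives have a fitted effect of over 35% in size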); conditions: FR4_PLB myeloma cells viability, CellTiter-Glo ATP, 48 h; at 45.8 µM (top of the series)
[28] = Quantitative High-Throughput drug screen in 47 multiple myeloma cell lines against the NCATS MIPE library collection: EJM_DSMZ cell viability assay (AID 1918926;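 further: 100% = DMSO-only wells and 0% = media-only wells without cells; nearly all actives have a fitted effect of over 30% in size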); conditions: EJM myeloma cell viability, CellTiter-Glo ATP, 48 h; at 45.8 µM (top of the series)

CCn1c(=O)n([C@@H]2CCN(CC3CCCCCCC3)C[C@@H]2CO)c2ccccc21
196%: cell viability, % of control (lower = more cytotoxic) [1]
inactive: viability (percent of control) [3] 91.7% | activity change, negative = cytotoxicity [4] -19% | activity change, negative = cytotoxic [5] 2.25% | Potency [6] | activity change, negative = cytotoxic [7] 51.7% | activity change, negative = cytotoxic [8] -19.9% | activity change, negative = cytotoxic [9] 53% | activity change, negative = cytotoxic [10] -21.3% | activity change, negative = cytotoxic [11] 16.8% | activity change, negative = cytotoxic [12] -11.4% | activity change, negative = cytotoxic [13] 17.1% | activity change, negative = cytotoxic [14] 15% | activity change, negative = cytotoxic [15] 11.6% | activity change, negative = cytotoxic [16] -16.5% | activity change, negative = cytotoxic [18] -25.4% | activity change, negative = cytotoxic [19] 56.3% | activity change, negative = cytotoxic [20] 3.99% | activity change, negative = cytotoxic [21] 13.9% | activity change, negative = cytotoxic [22] -1.15% | activity change, negative = inhibition [23] 1.26% [at 57.7 µM] | activity change, negative = inhibition [24] 42.5% | activity change, negative = inhibition [26] -7.05% | viability (% of DMSO control) [27] 90.5% | viability, % of control [28] 85.2%
active: Potency [17] 24.3 µM | Potency [25] 3.38 µM
108%: viability (% of control) [2]
